Values quoted from earlier work as cited in patent publication US20060287342A1, “Triazolopyrimidine heterocycles as cannabinoid receptor modulators” (priority 2005, published 2006).

Settings: chronic administration for two weeks

Structure (SMILES): Cc1c(C(=O)NN2CCCCC2)nn(-c2ccc(Cl)cc2Cl)c1-c1ccc(I)cc1 [AM-251]
- adipose tissue mass: decreased adipose tissue mass
